SIRT5 inh = SIRT5 desuccinylase inhibitors, primary screen, biochemical, fluorescence imaging, single point, set 5; Purified SirT5, succinyl-peptide AMC, trypsin-coupled fluorescence; 330,000 tested, 1.1% active; NAD-dependent protein deacylase sirtuin-5, mitochondrial (Homo sapiens), Q9NXA8; inhibition, % at 15 µM; in the data active means inhibition above about 15%; inconclusive means no clear call, values can overlap the other calls
E-selectin induc = E-selectin induction in HUVECs, primary screen, imaging, HUVEC, immunofluorescence imaging, single point; normalized: neutral wells 0, TNF-alpha wells 100; P16581; 260,000 tested, 0.37% active; activation, % at 7.58 µM;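 active means mean E-selectin-positive cell signal at least 10% of the positive control, reached in at least 60% of replicates, without over 20% cell loss; inconclusive means no rule given, readout overlaps actives, possibly toxicity-flagged; inactive means the rest, including those meeting only one limit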
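System: HUVEC / Compound: single concentration / Signal: immunofluorescence imaging / Read-out: percent E-selectin-positive cells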
MLL AF4-AF9 inh = inhibitors of AF4 peptide binding to AF9, primary screen, biochemical, AlphaScreen, biotin-AF4 peptide, FLAG-AF9, single point. Protein AF-9 (Homo sapiens), P42568. inhibition, % at 10 µM. 350,000 tested, 0.47% active;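 active means every replicate reaching a set inhibition limit, whatever the replicate mean, cut at about 25% in these data; inconclusive means mean inhibition reaches that limit but some replicates miss it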
Yeast UUG start = modulators of yeast start codon fidelity, primary screen, whole organism, S. cerevisiae, single point, plate reader; activity score, % at 18.7 µM; actives 0.13% (n = 350,000); S. cerevisiae UUG-firefly luciferase reporter, luminescence/redox ratio;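 active = replicate mean at a twofold rise or more, about +100% in these data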;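 also: firefly luciferase made from a UUG start codon reports start codon fidelity; reporter light over untreated wells divided by growth signal over untreated wells; some hits fall short of that in this replicate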
RAD54 inh = inhibitors of human RAD54 branch migration, primary screen, biochemical, fluorescence, single point | RAD54 Holliday junction branch migration, FAM/BHQ fluorescence | inhibition, % at 10.4 µM | 360,000 tested, 0.14% active | AID 602329, 2012;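 active means mean normalized replicate activity at least 40 and at least half of replicates scoring 40 or more; inconclusive means only one of the two criteria met; inactive means mean below 40 and under half of replicates reaching 40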;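 further: inhibitors cause a drop in the FAM fluorescence signal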
RAD52 inh = RAD52 DNA annealing inhibitors, primary screen, biochemical, FRET, single point, set 2; inhibition, % at 18.7 µM; 360,000 tested, 0.46% active; recombinant RAD52 DNA annealing, FRET fluorescence; DNA repair protein RAD52 homolog (Homo sapiens), P43351;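 active means every replicate showing at least 50% inhibition; inconclusive means mean inhibition at least 50% but not in every replicate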
Of the large screens only hits and unclear results are named; the others gave an inactive call. Shown are actives, neighbours in structure and some others; about 1.8% of the full set was active somewhere.

C[C@H](CO)N1C[C@H](C)[C@@H](CN(C)CC2CCCCC2)Oc2c(NC(=O)CCCCCC(=O)Nc3ccccc3N)cccc2C1=O	SIRT5 inh 19 (no result: Yeast UUG start, RAD54 inh)
CC(C)NC(=O)N(C)C[C@H]1Oc2c(NC(=O)CCCCCC(=O)Nc3ccccc3N)cccc2C(=O)N([C@@H](C)CO)C[C@H]1C	E-selectin induc 40 (no result: Yeast UUG start, RAD54 inh)
COc1ccccc1C(C)Nc1ccc(S(=O)(=O)N2CCN(C)CC2)cc1[N+](=O)[O-] (stereo unspecified)	MLL AF4-AF9 inh 28
NC(=S)NN=Cc1ccc(-c2ccc(S(=O)(=O)Nc3ncccn3)cc2)o1	SIRT5 inh 46 (no result: E-selectin induc, Yeast UUG start, RAD54 inh)
O=C(N/N=C/c1ccc(-c2ccc(S(=O)(=O)Nc3ncccn3)cc2)o1)c1cc2ccccc2cc1O	none (no result: SIRT5 inh, E-selectin induc, MLL AF4-AF9 inh, RAD52 inh)
O=C(OCC12CC3CC(CC(C3)C1)C2)c1ccc(NCc2cc(O)ccc2O)cc1	MLL AF4-AF9 inh inconclusive (no result: Yeast UUG start, RAD54 inh)
O=C(OCCC12CC3CC(CC(C3)C1)C2)c1ccc(NCc2cc(O)ccc2O)cc1	MLL AF4-AF9 inh 28 (no result: Yeast UUG start, RAD54 inh)
CCOc1ccccc1NC(=O)C(C)N1C(=O)c2ccccc2S1(=O)=O (stereo unspecified)	MLL AF4-AF9 inh 29 (no result: Yeast UUG start, RAD54 inh)
CCOc1ccccc1NC(=O)CN1c2cccc3cccc(c23)S1(=O)=O	SIRT5 inh 19
CCC(=O)N1[C@H](C#N)[C@@H](c2ccccc2-c2ccccc2)[C@H]1CO	none (no result: E-selectin induc, Yeast UUG start, RAD54 inh)
CN1Cc2c(N3CCOCC3)nc3sc(C(=O)c4ccc(Br)cc4)c(N)c3c2CC1(C)C	MLL AF4-AF9 inh 30 (no result: SIRT5 inh)
CC1(C)Cc2c(c(N3CCOCC3)nc3sc(C(=O)N4CCCCC4)c(N)c23)CO1	none
CN1Cc2c(N3CCOCC3)nc3sc(C#N)c(N)c3c2CC1(C)C	none (no result: Yeast UUG start, RAD54 inh)
CCCCOC(=O)c1sc2nc(N3CCOCC3)c3c(c2c1N)CC(C)(C)OC3	SIRT5 inh 24 (no result: Yeast UUG start, RAD54 inh)
CCCC#Cc1cnc2c(c1)C(=O)N([C@@H](C)CO)C[C@@H](C)[C@H](CN(C)C(=O)c1cnccn1)O2	none
CN1c2ccc(-c3ccccc3)cc2[C@H]2[C@H](CCN2C(=O)c2ccncc2)[C@H]1CO	none
Cc1cc(C2C(=O)c3ccccc3C2=O)c(C)c(C)c1C	SIRT5 inh 19 (no result: Yeast UUG start, RAD54 inh)
NC[C@@H]1O[C@H](C23CC4CC(CC(C4)C2)C3)Cc2c1ccc(O)c2O	MLL AF4-AF9 inh 47
C[C@@H]1CN([C@@H](C)CO)C(=O)c2cc(NC(=O)NC3CCCCC3)ccc2O[C@@H](C)CCCCO[C@H]1CN(C)C(=O)Nc1ccccc1	none (no result: E-selectin induc)
CN(C)c1ccc(CN(CC2CCCO2)C(=O)c2cc3ccccc3o2)cc1 (stereo unspecified)	MLL AF4-AF9 inh 26
Cc1cccc(S(=O)(=O)N2C[C@H]3[C@@H](c4ccccc42)[C@@H](CO)N3CC2CCCC2)c1	SIRT5 inh 15
Cc1cccc(S(=O)(=O)N2C[C@@H]3[C@H](c4ccccc42)[C@@H](CO)N3CC2CCCC2)c1	none
COc1ccccc1C(=O)N1C[C@@H]2[C@H](c3ccccc31)[C@H](CO)N2CC1CCCC1	none
O=C(c1ccccc1F)N1C[C@H]2[C@@H](c3ccccc31)[C@@H](CO)N2CC1CCCCC1	SIRT5 inh 27
CCC(=O)N1C[C@H]2[C@@H](c3ccccc31)[C@@H](CO)N2CC1CCCC1	SIRT5 inh 16
CO[C@@H]1CN(C)C(=O)c2ccc(NC(C)=O)cc2OC[C@H](C)N(C(=O)C2CC2)C[C@@H]1C	none
COc1ccc2c3c(n(C)c2c1)[C@@H](CO)N(CC1CCOCC1)CC31CN(C(C)=O)C1	none (no result: SIRT5 inh, Yeast UUG start, RAD54 inh, RAD52 inh)
C[C@H]1CN([C@@H](C)CO)C(=O)c2cccc(NC(=O)c3cnccn3)c2O[C@H]1CN(C)CC1CCCCC1	none
CC(C)(CO)CNC(=O)CCc1nnc(CCCc2ccccc2)o1	none (no result: Yeast UUG start, RAD54 inh)
C=C(C)CNC(=O)CCc1nnc(Cc2cccc(C(F)(F)F)c2)o1	none (no result: E-selectin induc, Yeast UUG start, RAD54 inh)

Screening results (PubChem BioAssay)
